Assay results from patent publication US20050164903A1, “Complexed surfactant system” (priority 2001, published 2005).
“Also recorded” adds a separate entry of the source.

Assays:
[1] = Foaming property (initial foamability and foam stability), semi-micro TK method; details: 1% solution
From the text: As samples for measuring initial foamability and foam stability, samples prepared under the same conditions as those used for measuring Krafft point were used (Table 14). […] The semi-micro TK method was used for measurement, and mean values were taken after measuring three times.
The tests were repeated three times and a mean value was taken.
Experiments were repeated three times, and a mean value was taken. For the experiment, a 1% aqueous solution was used.

[2] = Surface tension and cmc, Kruss tensiometer K12; type: physicochemical
Experimental: Samples of which surface tensions were to be measured were prepared by mixing SLS and a cationic compound in a mole ratio of 1:1, wherein deionized water was used as water, and a container for measurement was immersed in a cleaning solution for more than 3 hours, washed with water and acetone, dried in an oven, and then used.
A ring method was used, and after measuring 5 times, a mean value was taken. Solutions of 1%, 0.1%, 0.01%, and 0.001% by weight ratio of each of the cationic compounds were prepared to use for the tests.

[3] = Phase stability (appearance) of sample solutions; details: for Phase stability (appearance of sample solution): 1% aqueous solution

Substance | Foaming property, initial foamability, 0 min. ([1]; 0 min.) | Foaming property, 1 min. ([1]; 1 min.) | Foaming property, 2 min. ([1]; 2 min.) | Foaming property, 3 min. ([1]; 3 min.) | Foaming property, 4 min. ([1]; 4 min.) | Foaming property, foam stability after 5 min. ([1]; 5 min.) | Surface tension ([2]; concentration 0.001%) | Surface tension ([2]; concentration 0.01%) | Surface tension ([2]; concentration 0.1%) | Surface tension ([2]; concentration 1%) | Phase stability (appearance of sample solution) [3] | Concentration at which the solution became transparent ([3]; cationic compound in water) | Foaming property, result in words [1]
1,6-[2-(N N-dodecylmethylamino)ethanol]hexane [Synthesis Example 18] | 213 mL | 203 mL | 190 mL | 128 mL | 120 mL | 105 mL | 47.44 mN/m | 30.85 mN/m | 30.70 mN/m | 30.30 mN/m | cloudiness | 0.01 wt % | 
1,6-[2-(N,N-butylmethylamino)ethanol]hexane [Synthesis Example 16] |  |  |  |  |  |  |  | 61.98 mN/m | 51.95 mN/m | 37.45 mN/m | transparent |  | did not produced foam; also recorded: No foaming
1,6-[2-(N,N-ethylmethylamino)ethanol]hexane [Synthesis Example 15] |  |  |  |  |  |  |  | 71.53 mN/m | 68.63 mN/m | 61.35 mN/m | transparent |  | No foaming
